The values below come from PubChem BioAssay AID651711 (Broad Institute, 2012).

Sequences of proteins named here, by UniProt entry; tags and fusion partners are left off. A change or cut given only in a name is not applied to a line headed by its entry.
UniProt Q15084: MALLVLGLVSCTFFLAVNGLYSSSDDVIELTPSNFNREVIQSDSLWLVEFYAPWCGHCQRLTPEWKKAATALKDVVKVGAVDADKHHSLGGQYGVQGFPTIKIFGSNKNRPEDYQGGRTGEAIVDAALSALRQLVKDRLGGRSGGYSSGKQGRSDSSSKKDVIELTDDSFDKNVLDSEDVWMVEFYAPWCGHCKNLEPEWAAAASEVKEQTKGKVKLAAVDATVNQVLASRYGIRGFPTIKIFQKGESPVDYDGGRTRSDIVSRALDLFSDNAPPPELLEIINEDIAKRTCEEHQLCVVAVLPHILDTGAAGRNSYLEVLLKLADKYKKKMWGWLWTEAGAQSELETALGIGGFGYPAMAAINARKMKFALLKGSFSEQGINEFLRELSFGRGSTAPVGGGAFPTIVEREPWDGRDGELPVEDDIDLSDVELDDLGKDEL

Each structure is given as a SMILES string. The entries are a selection whose mix differs from that of the whole data set. Calls of active or inactive are those of the source.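 Rule for the calls: active = mean replicate inhibition above about 25%, with every replicate also reaching it (limit read from the data, passing the limit was not always enough); inconclusive = only one of those two criteria met; inactive = neither criterion met.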

The assay has as its target Protein disulfide-isomerase A6 (Homo sapiens) (UniProt Q15084). The assay is described as follows: inhibitors of ERp5-driven insulin aggregation, primary screen, biochemical, turbidity, absorbance 650 nm, single point (AID 651711). The settings on record: 90 min, at 9.99 µM, active compounds read high.
On to `O=P1(N(CCCl)CCCl)NCCC(C(F)(F)F)O1` (stereo not drawn), for which the inhibition is inactive: -6.34%.

On to `CC(C)(C)C(=O)NC(Sc1ncccn1)C(Cl)(Cl)Cl` (stereo not drawn), for which the inhibition is inactive: 5.66%.

As to `CCOP(=O)(Nc1ccc(C)cn1)OCC`, the inhibition is inactive: -1.03%.

Turning to `CN(CCCl)Cc1cc(Cl)c(NC2=NCCN2)c(Cl)c1`, the inhibition is inactive: -6.77%.

As for `CCC1=CC2Cc3nc4ccc(Cl)cc4c(N)c3C(C1)C2` (stereo not drawn), the inhibition was inactive: -3.53%.

For `CCOP(=O)(NC(=NC(C)c1ccccc1)NC(C)c1ccccc1)OCC` (stereo not drawn), the inhibition is inactive: 2.79%.

`CC(C)/C=N\N=C(\N)N[N+](=O)[O-]`: the inhibition is inactive: 3.35%.

Turning to `CN(C(=O)Cc1ccc(Cl)c(Cl)c1)[C@@H]1CCCC[C@H]1N1CCCC1`, the inhibition is inactive: 3.99%.

`CN(C(=O)Cc1ccc(Cl)c(Cl)c1)C1CCCC[C@@H]1N1CCCC1` (stereo partly drawn): the inhibition is inactive: -1.53%.

As for `COc1ccccc1CNC(=O)COC(=O)C(O)(c1ccccc1)c1ccccc1`, the inhibition is inactive: 2.57%.

Consider `O=C(/C=C/c1ccccc1)OC1CN2CCC1CC2` (stereo not drawn), for which the inhibition was inactive: 4.62%.

As to `CCCC1OP(=O)(Nc2ccccc2)OCC1CC` (stereo not drawn), the inhibition was inactive: 2.31%.

With `CN(C)C1(CNC(=O)c2ccc(S(C)(=O)=O)cc2)CCCCC1`, the inhibition was inactive: -3.84%.

Turning to `CC1CCC(C(C)C)C(OP(=O)(Nc2ccccn2)c2ccccc2)C1` (stereo not drawn), the inhibition was inactive: 4.18%.

As to `Cc1ccc(C(=O)OC2CN3CCC2CC3)cc1` (stereo not drawn), the inhibition is inactive: -1.5%.

For `O=[As](O)(c1cccs1)c1cccs1`, the inhibition was inactive: 5.01%.

`NS(=O)(=O)c1cccc(NC(=O)COC(=O)C(O)(c2ccccc2)c2ccccc2)c1`: the inhibition is inactive: 1.29%.

In the case of `Nc1cccc([As](=O)(O)c2ccccc2)c1`, the inhibition was inactive: 0.535%.

On to `Cc1ccc(S(=O)(=O)N(CCCN)CCCc2c(C)nc(N)[nH]c2=O)cc1`, for which the inhibition was inactive: -1.3%.

Regarding `Nc1ccccc1[As](=O)(O)c1ccccc1`, the inhibition is inactive: 2.84%.

In the case of `O=C(O)COc1ccc([As](=O)(O)O)cc1[N+](=O)[O-]`, the inhibition was inactive: -3.24%.

`CCOP1(=S)c2c(C)nn(CCC#N)c2N=C(c2ccccc2F)N1C` (stereo not drawn): the inhibition is inactive: 3.61%.

As for `O=P(Nc1nccs1)(Oc1ccccc1)Oc1ccccc1`, the inhibition is inactive: 0.474%.

As to `CN(C)C(=O)c1cc([N+](=O)[O-])cc2c1-c1c(cc([N+](=O)[O-])cc1[N+](=O)[O-])C2=O`, the inhibition was inactive: 6.31%.

On to `CN(C(=O)Cc1ccc(Cl)c(Cl)c1)[C@H]1CC[C@@]2(CCCO2)C[C@@H]1N1CCCC1`, for which the inhibition was inactive: 4.28%.

Turning to `N#CCCN(C(=O)COC(=O)C(O)(c1ccccc1)c1ccccc1)c1ccc(F)cc1`, the inhibition was inactive: 0.243%.

Take `CCOP1(=S)c2c(C)nn(CCC#N)c2N=C(c2ccc(F)cc2)N1C` (stereo not drawn): the inhibition is inactive: 5.81%.

`CN(C(=O)Cc1ccccc1)[C@@H]1CC[C@]2(CCCO2)C[C@H]1N1CCCC1`: the inhibition is inactive: 1.47%.

Take `NC(=O)Nc1ccc([As](=O)(O)O)cc1`: the inhibition is inactive: -3.54%.

As for `O=[As](O)(c1cccc(O)c1)c1cccc(O)c1`, the inhibition was inactive: -8.26%.

With `O=[As](O)(O)c1cccnc1`, the inhibition is inactive: 3.69%.

As to `COc1cc(C(=O)NCC2(N3CCOCC3)CCCCC2)cc(Cl)c1OC(C)C`, the inhibition was inactive: -3.33%.

For the compound `CS(=O)(=O)c1ccc(Cl)c(NC(=O)COC(=O)C(O)(c2ccccc2)c2ccccc2)c1`, the inhibition is inactive: 2.83%.

For the compound `O=C(OC1CN2CCC1CC2)c1ccc(Cl)cc1` (stereo not drawn), the inhibition was inactive: -0.394%.

Take `CCOP(=O)(Nc1cccc2ccccc12)OCC`: the inhibition was inactive: 3.3%.

With `CCCOP(=S)(Nc1nc(N)cc(=O)[nH]1)OCCC`, the inhibition is inactive: 0.165%.

For `Nc1cccc2c([As](=O)(O)O)cccc12`, the inhibition was inactive: 1.72%.

For the compound `Cc1ccc(NCCc2c([N+](=O)[O-])cc([N+](=O)[O-])cc2[N+](=O)[O-])cc1`, the inhibition is inactive: 1.41%.

With `COc1ccc2nc(NP(=O)(c3ccccc3)c3ccccc3)sc2c1`, the inhibition was inactive: 0.451%.

Regarding `COc1cc(I)ccc1[As](=O)(O)O`, the inhibition was inactive: -3.04%.

With `COc1ccc(CN2/C(=N\P(=O)(Oc3ccccc3)Oc3ccccc3)Cc3ccccc3C2C2CC2)cc1` (stereo not drawn), the inhibition was inactive: -1.46%.

On to `O=P1(N(CCCl)CCCl)Nc2ccccc2N1`, for which the inhibition was inactive: -2.35%.

For the compound `O=P1(N(CCCl)CCCl)OCCCN1CCCl` (stereo not drawn), the inhibition was inactive: 1.62%.

For the compound `Cc1cc(=O)[nH]c(N[N+](=O)[O-])n1`, the inhibition is inactive: 4.58%.

For `Cc1c2c(nc3ccccc13)SC(C(Cl)Cl)C2` (stereo not drawn), the inhibition is inactive: 6.42%.

As for `COc1ccc(N/C(=N/P(=O)(N2CCOCC2)N2CCOCC2)N2CCOCC2)cc1`, the inhibition was inactive: 0.0365%.

As for `O=[N+]([O-])c1cc(Oc2ccc([N+](=O)[O-])cc2C(F)(F)F)cc([N+](=O)[O-])c1`, the inhibition was inactive: -6.6%.

On to `Cc1ccc2nc3c(c(C)c2c1)CC(C(Cl)Cl)S3` (stereo not drawn), for which the inhibition is inactive: -1.57%.

Take `[N-]=[N+]=NC1CCCCC1NC(=O)c1cc([N+](=O)[O-])cc([N+](=O)[O-])c1` (stereo not drawn): the inhibition was inactive: 9.92%.

As for `Cc1ccc(OP(=O)(Nc2ccc([N+](=O)[O-])cn2)Oc2ccc(C)cc2)cc1`, the inhibition was inactive: -1.32%.

For the compound `O=[As](O)(c1ccc(O)cc1)c1ccccc1O`, the inhibition was inactive: 5.64%.

On to `C[As](=O)(O)c1cccc(C(=O)O)c1`, for which the inhibition was inactive: 0.347%.

Take `O=[N+]([O-])c1ccc(-c2cc([N+](=O)[O-])c(O)c([N+](=O)[O-])c2)cc1`: the inhibition is inactive: 2.08%.

Regarding `COc1cc(C(=O)NCC2(N3CCOCC3)CCCCC2)ccc1OCC(C)C`, the inhibition is inactive: 4.14%.

Turning to `CC(C)NC(=O)NP(=O)(Oc1ccccc1)Oc1ccccc1`, the inhibition is inactive: -4.63%.

For `O=C(OC1CN2CCC1CC2)c1cccc2[nH]cnc12` (stereo not drawn), the inhibition was inactive: 4.78%.

With `COC(=O)C1(C)COP(=O)(N2CCCCCC2)OC1` (stereo not drawn), the inhibition is inactive: 1.82%.

Consider `CC(C)c1ccc(OP(=O)(Nc2ccccn2)Oc2ccccc2F)cc1` (stereo not drawn), for which the inhibition is inactive: -2.07%.

For the compound `CCCCOc1ccc(C(=O)NCC2(N3CCCCC3)CCCCC2)cc1OC`, the inhibition was inactive: -0.32%.

`COP(=O)(OC)N1CC1c1ccccc1` (stereo not drawn): the inhibition is inactive: 3.15%.

With `CC1CCNP(=O)(N(CCCl)CCCl)O1` (stereo not drawn), the inhibition was inactive: 4.51%.

`CCOC(=O)Nc1ccc([As](=O)(O)O)c(O)c1`: the inhibition is inactive: 2.58%.

With `O=C(O)C(O)c1ccc(N(CCCl)CCCl)cc1` (stereo not drawn), the inhibition is inactive: 12.5%.

As for `O=[N+]([O-])c1ccc(Nc2ccc(Oc3ccc([N+](=O)[O-])cc3[N+](=O)[O-])cc2)c([N+](=O)[O-])c1`, the inhibition was inactive: 0.113%.

For the compound `O=P(Nc1ccccn1)(c1cccc2ccccc12)c1cccc2ccccc12`, the inhibition is inactive: -3.9%.

Take `Cc1cc(SC(NC=O)C(Cl)(Cl)Cl)ncn1` (stereo not drawn): the inhibition is inactive: 5.94%.

Consider `CCOC(=O)Nc1cccc([As](=O)(O)O)c1`, for which the inhibition is inactive: -2.86%.

Consider `O=C(Nc1ccncc1[N+](=O)[O-])c1ccc([N+](=O)[O-])cc1[N+](=O)[O-]`, for which the inhibition is inactive: -1.52%.

Consider `O=C(O)C(=O)c1ccc(N(CCCl)CCCl)cc1`, for which the inhibition was inactive: -0.464%.

For the compound `COP1(=S)c2c(C)nn(CCC#N)c2N=C(c2ccc(F)cc2)N1C` (stereo not drawn), the inhibition is inactive: 2.95%.

For `COC(=O)C1(C)COP(=O)(N2CCCC2)OC1` (stereo not drawn), the inhibition is inactive: -3.02%.

Regarding `CCOC(=O)c1ccc(NC(=O)C(C)(CCl)SC)cc1` (stereo not drawn), the inhibition was inactive: 2.77%.

On to `O=C(OC1CN2CCC1CC2)c1cccc([N+](=O)[O-])c1` (stereo not drawn), for which the inhibition is inactive: 3.07%.

With `Cc1ccc(NP(=O)(Oc2ccccc2)Oc2ccccc2)nc1`, the inhibition is inactive: 1.02%.

Turning to `O=[N+]([O-])c1cc([N+](=O)[O-])c(CCNc2ccccc2)c([N+](=O)[O-])c1`, the inhibition is inactive: 1.19%.

Take `COc1ccc(C2=NCC(CBr)S2)cc1` (stereo not drawn): the inhibition was inactive: -3.51%.

For `CC(C)c1nc(Nc2ccccc2)n(P(=O)(N(C)C)N(C)C)n1`, the inhibition was inactive: -13.7%.

As to `CC(C)=N/N=C(\N)N[N+](=O)[O-]`, the inhibition was inactive: 1.48%.

`c1cc(-c2nn[nH]n2)ccc1-c1nn[nH]n1`: the inhibition was inactive: -6.03%.

As for `Nc1ccc([As](=O)(O)c2ccc(N)cc2)cc1`, the inhibition is inactive: 0.798%.

With `C[N+]1=C2C=CC=CC=C2SC12C([N+](=O)[O-])=CC([N+](=O)[O-])=C[C-]2[N+](=O)[O-]` (stereo not drawn), the inhibition was inactive: -16.6%.

Consider `CCN(/C(=N/P(=O)(N1CCOCC1)N1CCOCC1)N1CCOCC1)c1ccc(OC)cc1`, for which the inhibition is inactive: -1.34%.

`O=C(Nc1cc([As](=O)(O)O)ccc1O)c1ccccc1`: the inhibition is inactive: -1.14%.

`O=P1(N(CCCl)CCCl)OCCCS1` (stereo not drawn): the inhibition is inactive: 2.02%.

On to `COC(=O)C1(C)COP(=O)(Nc2ccccc2)OC1` (stereo not drawn), for which the inhibition was inactive: -3.12%.

For the compound `O=[N+]([O-])c1cccc(NC2=NCC(CBr)S2)c1` (stereo not drawn), the inhibition is inactive: -0.711%.

`O=C(O)CNc1ccc([As](=O)(O)O)cc1`: the inhibition was inactive: -0.552%.

As to `CC(C)(C)C(=O)NC(Sc1ccncn1)C(Cl)(Cl)Cl` (stereo not drawn), the inhibition was inactive: -5.32%.

Regarding `O=[N+]([O-])c1ncn(CCn2ncnc2[N+](=O)[O-])n1`, the inhibition is inactive: 0.697%.

On to `Cc1ccc(NP(=O)(Oc2ccccc2F)Oc2ccccc2F)nc1`, for which the inhibition was inactive: 3.06%.

Regarding `CN(C(=O)Cc1ccc(Cl)c(Cl)c1)[C@H]1CCCC[C@@H]1N1CCCC1`, the inhibition is inactive: -0.384%.

As to `CCn1c(=O)n(C2CCN(CC3CCCCCCC3)C[C@H]2CO)c2ccccc21` (stereo partly drawn), the inhibition was inactive: 2.77%.

For `CC(=O)Nc1ccc([As](=O)(O)O)cc1`, the inhibition was inactive: 4.86%.

In the case of `O=C(O)c1ccccc1[As](=O)(O)O`, the inhibition was inactive: 6.17%.

Turning to `CCCC1OP(N)(=O)OCC1CC` (stereo not drawn), the inhibition is inactive: -4.34%.

As to `O=P(Nc1nc2ccc(Cl)cc2s1)(c1ccccc1)c1ccccc1`, the inhibition was inactive: -1.31%.

For `CN(C)P(=O)(N(C)C)n1c(Nc2ccccc2)nnc1-c1ccccc1`, the inhibition is inactive: 0.261%.

Turning to `CN(C(=O)Cc1ccccc1)C1CC[C@@]2(CCCO2)C[C@@H]1N1CCCC1` (stereo partly drawn), the inhibition was inactive: 11.9%.
